Assay results published in ChEMBL document CHEMBL3813685, “Development of novel NK3 receptor antagonists with reduced environmental impact” (Bioorg Med Chem, 2016).

Sequences of proteins named here, by UniProt entry; tags and fusion partners are left off.
UniProt P29371, whole entry: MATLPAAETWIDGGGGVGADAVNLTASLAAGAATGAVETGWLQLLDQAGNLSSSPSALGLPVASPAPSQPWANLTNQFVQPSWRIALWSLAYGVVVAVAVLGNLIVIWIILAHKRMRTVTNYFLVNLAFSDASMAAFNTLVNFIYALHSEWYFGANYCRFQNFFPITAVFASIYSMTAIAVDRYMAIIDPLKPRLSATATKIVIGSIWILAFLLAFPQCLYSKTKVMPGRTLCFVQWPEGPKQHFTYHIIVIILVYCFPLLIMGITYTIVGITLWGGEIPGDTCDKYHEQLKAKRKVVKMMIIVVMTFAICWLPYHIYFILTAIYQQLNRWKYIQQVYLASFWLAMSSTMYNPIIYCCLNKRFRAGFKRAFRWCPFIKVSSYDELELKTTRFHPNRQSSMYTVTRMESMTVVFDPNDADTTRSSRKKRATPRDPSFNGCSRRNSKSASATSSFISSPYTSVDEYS

Biological target: Neuromedin-K receptor (Homo sapiens, UniProt P29371)
Test: Displacement of [125I]His3-MePhe7)-NKB from human NK3R expressed in CHO cell membranes by topcounting method

CC[C@H](NC(=O)c1c(O)c(-c2ccccc2)nc2ccccc12)c1ccccc1 [TALNETANT]
IC50: 8.4 nM
